The values that follow are results of earlier work, collected in article PMC9398166 (Molecular Cancer Therapeutics, 2021).

This data set relates to ALK+ NSCLC. Conditions: patients with ALK+ NSCLC, first-line setting; cited from earlier work.

As for `C[C@@H](Oc1cc(-c2cnn(C3CCNCC3)c2)cnc1N)c1c(Cl)ccc(F)c1Cl` [Crizotinib, crizotinib], the objective response rate is on record as 74%.
